Entries after “also recorded” stand apart in the source; their conditions may differ.
Target: T1, AGTR1 (Homo sapiens, UniProt P30556)
T1 construct: An open reading frame of each full-length GPCR was cloned into pCAGGS expression plasmid; expressed in transfected cells; host or cells: ΔGq/ΔG12 HEK293
Assay: Chimeric G-protein-based TGFα shedding assay, ligand bias
Assay type: cell-based
Details: ΔGq/ΔG12 cells
Method: The TGFα shedding assay was performed as described previously (Inoue et al., 2012) with minor modifications. Plasmid transfection was performed in a 6-well plate with a mixture of 500 ng AP-TGFα-encoding plasmid, 200 ng GPCR-encoding plasmid with or without 100 ng Gα-encoding plasmid (per well, hereafter). After 1-day culture, the transfected cells were harvested by trypsinization, pelleted by centrifugation at 190 g for 5 min and washed once with Hank's Balanced Salt Solution (HBSS) containing 5 mM HEPES (pH 7.4). After centrifugation, the cells were resuspended in 6 ml of the HEPES-containing HBSS. […] The cell suspension was seeded in a 96-well culture plate (cell plate) at a volume of 90 μl (per well hereafter) and incubated for 30 min in a 5% CO2 incubator at 37° C. […] Absorbance at 405 nm (Ab405) of the plates was measured, using a microplate reader (SpectraMax 340 PC384, Molecular Devices), before and after 1-h or 2-h incubation at room temperature. Ligand-induced AP-TGFα release was calculated as described previously. […]
The inventors used a factor known as the relative intrinsic activity (RAi) (Ehlert et al., 1999) to calculate scores for G-protein coupling. […] The resulting dimensionless, relative Emax/EC50 (defined as RAi) parameter was then log (base 10) transformed to give Log RAi values used to quantify coupling. […]

[Sar^1, Ile^4,6]-Angiotensin II [SII]
activation of Gαs (C-terminal Gαs chimera): minimum | ligand bias among G-proteins (LogRAi plots) (compared with reference ligand Ang II): biased toward G12 over Gq; also recorded: more biased towards G12 than Gq

From patent US12612442B2, “G12-specific designer receptor exclusively activated by designer drugs” (CELL NETWORKS GMBH, priority 2019, dated 2026)
